# Values of other authors as cited in patent US20110052722A1, “Toleration Iron Supplement Compositions” (priority 2005, published 2011).
# Details: total administration should not exceed; cited from earlier work
substance,measurement,value
polysaccharide iron complex [PIC],toxicity limits,about 5000 mg/kg
